# Test results reported in patent publication US8076485B2, “Methylphenidate derivatives and uses of them” (priority 2005, dated 2011).
# Tested on: IL-8
# Assay: IL-8 release by TNFα-stimulated HUVECs (ELISA)
# Type: cell-based, human
# Conditions: 10 ng/ml TNFα 18 hours, 10 μM, TNFα + water 35572 ± 967.74
# Method: Passage 4 HUVECs, human source lot number 8710 (obtained from ATCC), were put into the wells of a 24-well tissue culture plate at 5,000 cells/well in EGM-2 medium and cultured for 72 hours at 37° C. and 5% CO2. […] After incubation for 1 hour at 37° C. and 5% CO2, TNFα (Pierce) was added to give a final concentration of 10 ng/ml, and the cells were incubated for an additional 18 hours at 37° C. and 5% CO2. After this incubation, the supernatants were collected, and the amount of IL-8 in the supernatants determined by ELISA as described in Example 4.
structure (smiles),measurement,value
"C[C@@H]1C[C@H]2[C@@H]3CCC4=CC(=O)C=C[C@]4(C)[C@@]3(F)[C@@H](O)C[C@]2(C)[C@@]1(O)C(=O)CO [dexamethasone, reference compound]",Mean IL-8,35952 ± 2197.14 pg/mL
